How the values were obtained:
human TASK-3 = human TASK-3 (Homo sapiens (Human), UniProt Q9NPC2); assay: Inhibition of recombinant TASK-3 in stably transfected CHO cells (voltage-sensitive dye, KCl depolarization); type: cell-based; conditions: read-out: TASK-3 IC50, depolarization by 40 mM potassium chloride
human TASK-1 = human TASK-1 (Homo sapiens (Human), UniProt O14649); assay: Inhibition of recombinant TASK-1 in stably transfected CHO cells (voltage-sensitive dye, KCl depolarization); type: cell-based; conditions: read-out: TASK-1 IC50, depolarization by 40 mM potassium chloride

The chains behind the UniProt entries cited, without tags or fusion partners.
UniProt Q9NPC2, whole entry: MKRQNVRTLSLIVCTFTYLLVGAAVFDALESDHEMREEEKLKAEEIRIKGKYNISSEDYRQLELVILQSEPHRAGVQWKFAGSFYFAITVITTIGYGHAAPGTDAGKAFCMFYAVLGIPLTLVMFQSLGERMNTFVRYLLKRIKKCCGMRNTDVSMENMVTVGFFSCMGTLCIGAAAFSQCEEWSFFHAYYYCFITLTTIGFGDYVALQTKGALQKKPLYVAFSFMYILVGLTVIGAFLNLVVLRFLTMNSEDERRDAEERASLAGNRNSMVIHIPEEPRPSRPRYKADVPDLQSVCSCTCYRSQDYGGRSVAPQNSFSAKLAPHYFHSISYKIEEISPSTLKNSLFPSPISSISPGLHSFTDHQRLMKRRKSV
UniProt O14649, whole entry: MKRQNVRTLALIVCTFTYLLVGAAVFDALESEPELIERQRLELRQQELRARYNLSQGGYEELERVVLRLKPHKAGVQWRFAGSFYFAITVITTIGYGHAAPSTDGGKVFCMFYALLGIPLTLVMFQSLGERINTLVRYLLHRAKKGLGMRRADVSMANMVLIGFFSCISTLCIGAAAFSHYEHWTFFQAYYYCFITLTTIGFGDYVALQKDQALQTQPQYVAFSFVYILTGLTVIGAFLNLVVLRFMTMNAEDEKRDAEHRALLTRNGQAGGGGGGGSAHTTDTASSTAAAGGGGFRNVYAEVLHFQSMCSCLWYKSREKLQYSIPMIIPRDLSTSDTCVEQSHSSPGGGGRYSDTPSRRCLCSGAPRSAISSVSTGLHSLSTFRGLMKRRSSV

Structure (SMILES): COc1ccc(F)c(C(=O)N2C3CCC2CN(C(C)c2c(-c4ccc(Cl)cc4)nc4ncccn24)C3)n1 (centres unmarked)
- IC50 (human TASK-3): 670 nM
- IC50 (human TASK-1): 3500 nM

From patent US11098063B2, “Diazabicyclic substituted imidazopyrimidines and their use for the treatment of breathing disorders” (Bayer Aktiengesellschaft, priority 2017, dated 2021)
